Test results: US5840697A, “Peptide inhibitors of calmodulin” (Torrey Pines Institute for Molecular Studies, priority 1996, dated 1998)

Biological target: calmodulin (Homo sapiens, UniProt P0DP23)
Assay: electrophoretic band shift assay of peptide-calmodulin complexes
Format: binding
Protocol: The following samples were subjected to electrophoresis in the gel lane indicated:
Because melittin is known to bind to calmodulin as described, for example, in Comte et al., Biochem. J., 209:269-272 (1983), in the above samples melittin is the positive control. The samples were incubated with calmodulin at 22° C. for 1 hr, and electrophoresed on a 10% acrylamide gel in Tris-glycine buffer under nondenaturating conditions as described in Head and Perry, Biochem. J., 137:145-154 (1974), which is incorporated herein by reference. The gel was then stained with coomasie blue.
The band shifts were also measured using a densitometer. Determination of band width by densitometry was done on the following samples: (1) calmodulin (1 nmol)+EDTA (2 nmol); (2) calmodulin (1 nmol)+Ca^2+ (1 nmol)+Ac-(D)Leu-(D)Trp-(D)Arg-(D)Ile-(D)Leu-(D)Trp-NH2 (100 nmol); and (3) calmodulin (1 nmol)+Ca^2+ (1 nmol).

For `CC[C@H](C)[C@H](NC(=O)CN)C(=O)NCC(=O)N[C@@H](C)C(=O)N[C@H](C(=O)N[C@@H](CC(C)C)C(=O)N[C@@H](CCCCN)C(=O)N[C@H](C(=O)N[C@@H](CC(C)C)C(=O)N[C@H](C(=O)N[C@H](C(=O)NCC(=O)N[C@@H](CC(C)C)C(=O)N1CCC[C@H]1C(=O)N[C@@H](C)C(=O)N[C@@H](CC(C)C)C(=O)N[C@H](C(=O)N[C@@H](CO)C(=O)N[C@@H](Cc1c[nH]c2ccccc12)C(=O)N[C@H](C(=O)N[C@@H](CCCCN)C(=O)N[C@@H](CCCNC(=N)N)C(=O)N[C@@H](CCCCN)C(=O)N[C@@H](CCCNC(=N)N)C(=O)N[C@@H](CCC(N)=O)C(=O)N[C@@H](CCC(N)=O)C(N)=O)[C@@H](C)CC)[C@@H](C)CC)[C@@H](C)O)[C@@H](C)O)C(C)C)C(C)C` [melittin, reference compound], the “band shift (mobility change) on binding to calmodulin” value (in the presence of Ca2+) was “shifted as compared to lane 8” and the “band shift (mobility change) on binding to calmodulin” value (with EDTA (no calcium)) was “no band shift”.
